ChEMBL document CHEMBL3400047, “Synthesis and binding properties of new long-chain 4-substituted piperazine derivatives as 5-HT₁A and 5-HT₇ receptor ligands” (Bioorg Med Chem Lett, 2015)

Amino acid sequences for entries named in this document (tags omitted).
UniProt P34969, whole entry: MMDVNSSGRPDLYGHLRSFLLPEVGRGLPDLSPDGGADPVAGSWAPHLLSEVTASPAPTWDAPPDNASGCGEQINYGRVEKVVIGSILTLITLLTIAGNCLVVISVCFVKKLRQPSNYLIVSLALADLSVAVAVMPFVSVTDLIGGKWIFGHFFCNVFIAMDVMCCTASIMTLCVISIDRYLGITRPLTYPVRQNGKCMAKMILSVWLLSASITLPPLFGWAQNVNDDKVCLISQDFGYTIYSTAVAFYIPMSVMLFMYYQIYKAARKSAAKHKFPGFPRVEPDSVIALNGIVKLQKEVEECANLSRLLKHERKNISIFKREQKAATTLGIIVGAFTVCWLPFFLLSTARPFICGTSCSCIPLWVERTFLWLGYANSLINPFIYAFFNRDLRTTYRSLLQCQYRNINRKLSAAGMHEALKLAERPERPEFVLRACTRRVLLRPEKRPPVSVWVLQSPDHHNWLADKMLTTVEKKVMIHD

Biological target: 5-hydroxytryptamine receptor 7 (Homo sapiens, UniProt P34969)
Assay: Displacement of [3H]-8-OH-DPAT from human 5-HT7 receptor expressed in CHOK1 cells after 30 mins by liquid scintillation counting analysis
Format: cell-based, CHO-K1

For CCCN(CCC)C1CCc2cccc(O)c2C1 (stereo unspecified) [8-OH-DPAT], the Ki was 388 nM.
